# Data taken from patent US5763625A, “Synthesis and use of β-lapachone analogs” (priority 1995, dated 1998).
# Entries after “also recorded” stand apart in the source; their conditions may differ.
# Tested on: Topo I enzyme activity in U1-Mel cells
# Test: Down-regulation of Topo I activity in irradiated U1-Mel cells with ADPRT inhibitors
# Type: cell-based, human
# Details: 0.5 μM
smiles,measurement,setting,value
Cc1cccc2c1CCNC2=O [PD 1],effect on down-regulation of Topo I enzyme activity,1 hour prior to or 4 hours immediately after 400 cGy,prevented the down-regulation; also recorded: restored Topo I activity
same,effect on down-regulation of Topo I activities after UV-irradiation,UV-irradiation 10 J/M^2,prevented this down-regulation
